Protein sequences, listed by entry. Tags and fused reporters are not part of them. Lines headed by an entry give the natural chain unless they say otherwise; changes in a name come on top.
UniProt O60331: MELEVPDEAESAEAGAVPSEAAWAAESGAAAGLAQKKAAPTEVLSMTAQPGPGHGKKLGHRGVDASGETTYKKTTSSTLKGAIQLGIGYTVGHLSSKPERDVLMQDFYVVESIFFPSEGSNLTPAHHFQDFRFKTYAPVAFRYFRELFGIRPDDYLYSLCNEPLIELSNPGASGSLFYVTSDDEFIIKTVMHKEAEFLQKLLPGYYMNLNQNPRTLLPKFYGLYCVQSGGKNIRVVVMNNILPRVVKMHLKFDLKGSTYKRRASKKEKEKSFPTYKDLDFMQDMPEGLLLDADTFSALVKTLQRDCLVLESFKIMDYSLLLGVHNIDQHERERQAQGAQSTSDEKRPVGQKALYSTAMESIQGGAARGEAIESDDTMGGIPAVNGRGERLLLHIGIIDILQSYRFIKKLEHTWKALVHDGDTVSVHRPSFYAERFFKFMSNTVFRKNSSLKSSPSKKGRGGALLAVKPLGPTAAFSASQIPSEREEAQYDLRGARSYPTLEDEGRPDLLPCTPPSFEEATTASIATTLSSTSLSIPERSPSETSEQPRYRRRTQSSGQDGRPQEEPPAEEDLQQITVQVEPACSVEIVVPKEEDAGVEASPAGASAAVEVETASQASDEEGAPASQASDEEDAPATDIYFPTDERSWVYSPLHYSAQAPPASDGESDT
UniProt P27986, whole entry, looked up: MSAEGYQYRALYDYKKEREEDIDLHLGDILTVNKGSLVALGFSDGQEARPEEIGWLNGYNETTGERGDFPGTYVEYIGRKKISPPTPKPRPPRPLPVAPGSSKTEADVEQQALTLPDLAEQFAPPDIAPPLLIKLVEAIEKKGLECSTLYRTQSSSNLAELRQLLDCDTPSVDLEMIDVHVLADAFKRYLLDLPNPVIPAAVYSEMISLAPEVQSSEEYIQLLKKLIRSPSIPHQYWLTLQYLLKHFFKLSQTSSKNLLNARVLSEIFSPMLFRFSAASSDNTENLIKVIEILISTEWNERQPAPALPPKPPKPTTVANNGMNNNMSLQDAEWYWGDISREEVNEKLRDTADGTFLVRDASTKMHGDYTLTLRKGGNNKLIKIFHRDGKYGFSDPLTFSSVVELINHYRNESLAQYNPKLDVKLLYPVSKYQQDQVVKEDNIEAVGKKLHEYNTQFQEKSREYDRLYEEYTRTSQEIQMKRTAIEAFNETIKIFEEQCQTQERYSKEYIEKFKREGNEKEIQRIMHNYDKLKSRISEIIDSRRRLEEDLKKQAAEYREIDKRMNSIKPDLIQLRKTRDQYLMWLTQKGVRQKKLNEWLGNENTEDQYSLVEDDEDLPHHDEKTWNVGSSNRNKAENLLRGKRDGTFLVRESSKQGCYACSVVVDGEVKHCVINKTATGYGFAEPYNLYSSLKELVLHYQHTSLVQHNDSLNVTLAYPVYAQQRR
UniProt P42338: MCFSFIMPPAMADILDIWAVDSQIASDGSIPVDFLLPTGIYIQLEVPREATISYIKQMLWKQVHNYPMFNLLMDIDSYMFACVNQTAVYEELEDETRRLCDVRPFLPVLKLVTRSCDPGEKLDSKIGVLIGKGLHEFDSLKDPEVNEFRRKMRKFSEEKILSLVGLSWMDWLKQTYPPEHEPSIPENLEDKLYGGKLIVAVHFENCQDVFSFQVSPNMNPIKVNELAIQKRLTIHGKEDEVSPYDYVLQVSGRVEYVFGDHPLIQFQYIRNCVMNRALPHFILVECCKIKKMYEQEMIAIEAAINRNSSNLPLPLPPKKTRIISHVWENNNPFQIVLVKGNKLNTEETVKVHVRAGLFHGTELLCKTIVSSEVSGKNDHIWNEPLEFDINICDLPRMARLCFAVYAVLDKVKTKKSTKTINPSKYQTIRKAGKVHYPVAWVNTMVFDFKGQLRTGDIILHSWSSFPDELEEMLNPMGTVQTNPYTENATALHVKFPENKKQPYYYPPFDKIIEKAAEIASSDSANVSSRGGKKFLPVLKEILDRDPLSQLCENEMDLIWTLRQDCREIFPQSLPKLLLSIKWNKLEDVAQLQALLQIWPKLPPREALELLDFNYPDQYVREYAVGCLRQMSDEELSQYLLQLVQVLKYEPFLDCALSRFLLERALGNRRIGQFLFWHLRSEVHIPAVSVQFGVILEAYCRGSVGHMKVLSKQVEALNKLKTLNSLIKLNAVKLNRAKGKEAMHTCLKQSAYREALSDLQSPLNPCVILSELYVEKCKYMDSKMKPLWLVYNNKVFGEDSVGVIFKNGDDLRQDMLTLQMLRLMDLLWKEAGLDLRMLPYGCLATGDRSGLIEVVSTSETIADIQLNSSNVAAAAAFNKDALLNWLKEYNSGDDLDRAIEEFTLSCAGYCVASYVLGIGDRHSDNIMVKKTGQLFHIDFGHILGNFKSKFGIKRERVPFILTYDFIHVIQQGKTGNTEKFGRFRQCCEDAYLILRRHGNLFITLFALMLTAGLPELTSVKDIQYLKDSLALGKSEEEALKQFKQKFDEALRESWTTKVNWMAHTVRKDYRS
UniProt P42336: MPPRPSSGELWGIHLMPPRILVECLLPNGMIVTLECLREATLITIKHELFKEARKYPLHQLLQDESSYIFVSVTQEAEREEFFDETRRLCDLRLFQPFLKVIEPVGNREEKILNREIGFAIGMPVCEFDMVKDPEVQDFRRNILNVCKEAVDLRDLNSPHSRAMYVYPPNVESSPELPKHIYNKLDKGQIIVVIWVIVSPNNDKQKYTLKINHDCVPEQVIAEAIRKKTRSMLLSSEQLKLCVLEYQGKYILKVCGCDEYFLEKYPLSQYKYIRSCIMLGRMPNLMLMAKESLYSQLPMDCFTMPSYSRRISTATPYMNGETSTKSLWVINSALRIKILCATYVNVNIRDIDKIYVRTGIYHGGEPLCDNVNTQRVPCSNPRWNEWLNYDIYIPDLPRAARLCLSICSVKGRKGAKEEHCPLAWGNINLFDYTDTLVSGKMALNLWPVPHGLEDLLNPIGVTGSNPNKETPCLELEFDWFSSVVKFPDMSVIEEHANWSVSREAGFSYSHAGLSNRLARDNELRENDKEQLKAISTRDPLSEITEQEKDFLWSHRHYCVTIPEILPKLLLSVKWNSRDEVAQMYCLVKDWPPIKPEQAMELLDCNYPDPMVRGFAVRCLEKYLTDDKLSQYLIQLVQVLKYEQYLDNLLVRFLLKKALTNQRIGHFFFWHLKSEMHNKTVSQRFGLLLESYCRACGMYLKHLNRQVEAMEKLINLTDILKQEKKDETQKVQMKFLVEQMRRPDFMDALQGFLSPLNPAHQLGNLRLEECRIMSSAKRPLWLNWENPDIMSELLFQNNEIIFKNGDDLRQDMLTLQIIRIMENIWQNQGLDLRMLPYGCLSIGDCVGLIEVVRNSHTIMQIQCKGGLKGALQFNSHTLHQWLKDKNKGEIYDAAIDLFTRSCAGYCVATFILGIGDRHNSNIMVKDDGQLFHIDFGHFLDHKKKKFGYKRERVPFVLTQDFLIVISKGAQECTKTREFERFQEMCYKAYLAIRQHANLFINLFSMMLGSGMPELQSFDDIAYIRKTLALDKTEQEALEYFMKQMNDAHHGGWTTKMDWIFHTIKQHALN
UniProt P48736: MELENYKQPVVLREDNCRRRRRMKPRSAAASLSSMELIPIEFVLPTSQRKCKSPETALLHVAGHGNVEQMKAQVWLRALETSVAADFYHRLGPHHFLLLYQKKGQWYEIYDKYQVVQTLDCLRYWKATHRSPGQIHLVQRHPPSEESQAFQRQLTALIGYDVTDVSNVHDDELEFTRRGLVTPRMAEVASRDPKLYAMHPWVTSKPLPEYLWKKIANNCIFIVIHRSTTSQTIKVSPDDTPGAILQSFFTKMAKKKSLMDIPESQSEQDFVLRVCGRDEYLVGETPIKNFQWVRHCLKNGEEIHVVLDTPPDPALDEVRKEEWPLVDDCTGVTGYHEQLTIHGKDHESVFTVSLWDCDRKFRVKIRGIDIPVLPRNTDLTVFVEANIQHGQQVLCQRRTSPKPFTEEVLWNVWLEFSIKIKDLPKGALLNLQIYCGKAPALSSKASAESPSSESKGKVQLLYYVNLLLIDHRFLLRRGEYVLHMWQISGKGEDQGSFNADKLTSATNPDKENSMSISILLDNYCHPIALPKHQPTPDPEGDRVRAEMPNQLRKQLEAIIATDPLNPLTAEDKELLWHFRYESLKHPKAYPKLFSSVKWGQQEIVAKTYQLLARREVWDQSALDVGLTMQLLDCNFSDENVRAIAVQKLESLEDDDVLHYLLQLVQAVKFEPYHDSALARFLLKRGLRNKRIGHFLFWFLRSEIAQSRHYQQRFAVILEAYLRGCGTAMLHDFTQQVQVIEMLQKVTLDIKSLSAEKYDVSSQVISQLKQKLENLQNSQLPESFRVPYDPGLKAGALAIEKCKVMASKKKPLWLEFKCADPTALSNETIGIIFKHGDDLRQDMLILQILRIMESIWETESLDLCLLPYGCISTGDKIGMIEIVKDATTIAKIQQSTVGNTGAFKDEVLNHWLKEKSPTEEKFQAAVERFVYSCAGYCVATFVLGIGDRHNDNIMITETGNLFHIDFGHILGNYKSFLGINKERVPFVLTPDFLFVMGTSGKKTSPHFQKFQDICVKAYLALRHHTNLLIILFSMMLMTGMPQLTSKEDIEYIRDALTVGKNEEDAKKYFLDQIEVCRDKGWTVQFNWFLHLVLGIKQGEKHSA
UniProt P62942, whole entry, looked up: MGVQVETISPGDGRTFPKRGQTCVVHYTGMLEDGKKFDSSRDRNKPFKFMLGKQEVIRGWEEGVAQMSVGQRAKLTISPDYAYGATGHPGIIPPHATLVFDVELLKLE
UniProt Q8WXE1: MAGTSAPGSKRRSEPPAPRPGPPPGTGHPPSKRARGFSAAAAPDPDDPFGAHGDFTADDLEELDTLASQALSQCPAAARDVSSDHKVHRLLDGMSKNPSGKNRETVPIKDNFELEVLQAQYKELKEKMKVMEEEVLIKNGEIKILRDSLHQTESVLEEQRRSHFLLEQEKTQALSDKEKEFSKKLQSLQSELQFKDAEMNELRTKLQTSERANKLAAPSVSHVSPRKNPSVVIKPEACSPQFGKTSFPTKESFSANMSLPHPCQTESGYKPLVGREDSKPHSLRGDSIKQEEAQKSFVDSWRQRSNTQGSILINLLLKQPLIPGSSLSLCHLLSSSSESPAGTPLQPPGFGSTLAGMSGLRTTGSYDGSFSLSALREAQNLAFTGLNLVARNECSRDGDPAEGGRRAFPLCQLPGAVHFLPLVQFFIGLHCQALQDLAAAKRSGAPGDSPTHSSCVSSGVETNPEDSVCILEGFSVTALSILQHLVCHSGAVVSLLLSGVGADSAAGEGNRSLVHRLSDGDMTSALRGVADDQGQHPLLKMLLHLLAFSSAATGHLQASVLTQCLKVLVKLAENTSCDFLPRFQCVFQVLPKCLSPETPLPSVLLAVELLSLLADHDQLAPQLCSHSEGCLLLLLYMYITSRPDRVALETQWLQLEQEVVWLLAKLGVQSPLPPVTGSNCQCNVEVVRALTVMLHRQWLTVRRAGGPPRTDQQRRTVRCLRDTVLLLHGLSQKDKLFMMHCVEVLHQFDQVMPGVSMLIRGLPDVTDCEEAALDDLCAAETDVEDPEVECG

In ChEMBL document CHEMBL5532663, “Discovery of Potent and Selective Phosphatidylinositol 3-Phosphate 5-Kinase (PIKfyve) Inhibitors as Methuosis Inducers” (J Med Chem, 2024):

Legend:
[1] = Apparent volume of distribution in Balb/C mouse at 50 mg/kg, po measured for 24 hrs by LC-MS/MS analysis; type: ADME, organism-based; conditions: in vivo
[2] = biological target: Phosphatidylinositol 4-phosphate 5-kinase type-1 gamma (Homo sapiens) (UniProt O60331); assay: Inhibition of PIP5K1gamma (unknown origin) assessed as residual activity at 1000 nM in presence of gamma33P-ATP by radiometric assay relative to control
[3] = biological target: DNA-dependent protein kinase catalytic subunit (Homo sapiens) (UniProt P78527); assay: Inhibition of DNA-PK (unknown origin) assessed as residual activity at 1000 nM in presence of gamma33P-ATP by radiometric assay relative to control
[4] = biological target: PI3K p110 beta/p85 alpha (Homo sapiens) (UniProt P27986+P42338); assay: Inhibition of p110beta/p85alpha (unknown origin) assessed as residual activity at 1000 nM in presence of gamma33P-ATP by radiometric assay relative to control; type: protein-complex assay
[5] = biological target: T1, Phosphatidylinositol 5-phosphate 4-kinase type-2 alpha (Homo sapiens) (UniProt P48426); assay: Inhibition of PIP4K2alpha (unknown origin) assessed as residual activity at 1000 nM in presence of gamma33P-ATP by radiometric assay relative to control
T1 sequence (whole entry): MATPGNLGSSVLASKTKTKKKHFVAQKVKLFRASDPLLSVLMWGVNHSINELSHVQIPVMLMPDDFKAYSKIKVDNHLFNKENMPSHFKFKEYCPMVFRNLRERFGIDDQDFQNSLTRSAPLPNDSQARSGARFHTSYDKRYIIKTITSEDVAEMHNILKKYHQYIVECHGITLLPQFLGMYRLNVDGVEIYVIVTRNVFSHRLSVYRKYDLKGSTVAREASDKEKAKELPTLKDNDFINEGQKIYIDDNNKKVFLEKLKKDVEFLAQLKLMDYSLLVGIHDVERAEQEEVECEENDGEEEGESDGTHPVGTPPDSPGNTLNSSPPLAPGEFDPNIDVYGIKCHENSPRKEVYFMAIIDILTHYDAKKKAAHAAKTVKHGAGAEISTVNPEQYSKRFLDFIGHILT

[6] = biological target: Phosphatidylinositol 4-phosphate 3-kinase C2 domain-containing subunit alpha (Homo sapiens) (UniProt O00443); assay: Inhibition of PI3KC2alpha (unknown origin) assessed as residual activity at 1000 nM in presence of gamma33P-ATP by radiometric assay relative to control
[7] = Toxicity in NOD/SCID mouse model xenografted with human HeLa cells assessed as body weight loss at 20 mg/kg, po qd treated for 10 days; type: organism-based; conditions: in vivo, 240 h, time 10 day
[8] = biological target: PI3-kinase p110-alpha/p85-alpha (Homo sapiens) (UniProt P27986+P42336); assay: Inhibition of p110alpha/p85alpha (unknown origin) assessed as residual activity at 1000 nM in presence of gamma33P-ATP by radiometric assay relative to control; type: protein-complex assay
[9] = biological target: PIK3CG/PIK3R1 (Homo sapiens) (UniProt P27986+P48736); assay: Inhibition of p110gamma/p85alpha (unknown origin) assessed as residual activity at 1000 nM in presence of gamma33P-ATP by radiometric assay relative to control; type: protein-complex assay
[10] = biological target: Phosphatidylinositol 4,5-bisphosphate 3-kinase catalytic subunit gamma isoform (Homo sapiens) (UniProt P48736); assay: Inhibition of p120gamma (unknown origin) assessed as residual activity at 1000 nM in presence of gamma33P-ATP by radiometric assay relative to control
[11] = biological target: T2, Phosphatidylinositol 3-kinase C2 domain-containing subunit gamma (Homo sapiens) (UniProt O75747); assay: Inhibition of PI3KC2gamma (unknown origin) assessed as residual activity at 1000 nM in presence of gamma33P-ATP by radiometric assay relative to control
T2 sequence (whole entry): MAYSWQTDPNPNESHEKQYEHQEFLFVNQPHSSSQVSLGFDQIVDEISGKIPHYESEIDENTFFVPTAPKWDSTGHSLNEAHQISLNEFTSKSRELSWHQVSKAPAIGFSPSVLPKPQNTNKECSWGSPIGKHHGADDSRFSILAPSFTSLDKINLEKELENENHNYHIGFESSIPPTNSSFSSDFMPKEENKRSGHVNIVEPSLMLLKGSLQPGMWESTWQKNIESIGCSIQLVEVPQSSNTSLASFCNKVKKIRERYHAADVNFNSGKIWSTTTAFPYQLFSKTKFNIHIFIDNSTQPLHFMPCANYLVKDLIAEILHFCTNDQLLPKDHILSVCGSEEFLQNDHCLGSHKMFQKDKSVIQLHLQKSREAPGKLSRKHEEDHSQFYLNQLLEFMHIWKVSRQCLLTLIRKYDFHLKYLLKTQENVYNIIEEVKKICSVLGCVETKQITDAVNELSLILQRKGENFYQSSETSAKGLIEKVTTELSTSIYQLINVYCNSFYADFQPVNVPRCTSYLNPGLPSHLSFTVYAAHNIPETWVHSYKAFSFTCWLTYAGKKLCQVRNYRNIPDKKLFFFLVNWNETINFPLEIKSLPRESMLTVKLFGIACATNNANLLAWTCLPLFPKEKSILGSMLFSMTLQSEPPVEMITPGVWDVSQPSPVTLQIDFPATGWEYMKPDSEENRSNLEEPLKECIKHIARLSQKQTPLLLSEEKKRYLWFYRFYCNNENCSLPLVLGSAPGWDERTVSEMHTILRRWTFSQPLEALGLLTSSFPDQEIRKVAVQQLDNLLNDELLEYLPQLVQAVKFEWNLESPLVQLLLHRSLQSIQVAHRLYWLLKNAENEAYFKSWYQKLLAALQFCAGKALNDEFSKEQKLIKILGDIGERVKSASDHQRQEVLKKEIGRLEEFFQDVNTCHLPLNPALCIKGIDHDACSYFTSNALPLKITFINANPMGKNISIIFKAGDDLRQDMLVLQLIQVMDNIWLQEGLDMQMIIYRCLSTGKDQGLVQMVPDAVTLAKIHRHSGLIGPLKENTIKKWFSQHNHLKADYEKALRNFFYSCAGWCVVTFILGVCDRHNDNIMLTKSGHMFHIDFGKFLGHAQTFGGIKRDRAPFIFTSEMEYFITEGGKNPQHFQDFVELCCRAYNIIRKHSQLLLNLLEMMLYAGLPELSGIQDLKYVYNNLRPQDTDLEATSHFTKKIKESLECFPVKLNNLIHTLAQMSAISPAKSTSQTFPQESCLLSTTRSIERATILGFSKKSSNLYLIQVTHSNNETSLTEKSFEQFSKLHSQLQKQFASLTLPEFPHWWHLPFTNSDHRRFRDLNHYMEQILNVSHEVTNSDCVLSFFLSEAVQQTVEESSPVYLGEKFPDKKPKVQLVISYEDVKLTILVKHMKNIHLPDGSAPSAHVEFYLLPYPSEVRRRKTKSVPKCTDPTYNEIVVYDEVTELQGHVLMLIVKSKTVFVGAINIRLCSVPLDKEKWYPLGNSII

[12] = biological target: Serine/threonine-protein kinase mTOR (Homo sapiens) (UniProt P42345); assay: Inhibition of mTOR (unknown origin) assessed as residual activity at 1000 nM in presence of gamma33P-ATP by radiometric assay relative to control
[13] = Half life in Balb/C mouse at 10 mg/kg, iv measured for 24 hrs by LC-MS/MS analysis; type: ADME, organism-based; conditions: in vivo
[14] = biological target: Serine-protein kinase ATM (Homo sapiens) (UniProt Q13315); assay: Inhibition of ATM (unknown origin) assessed as residual activity at 1000 nM in presence of gamma33P-ATP by radiometric assay relative to control
[15] = system: PI3-kinase p110-alpha/p85-alpha (Homo sapiens), P27986+P42336 [E542K]; assay: Inhibition of p110alpha E542K mutant/p85alpha (unknown origin) assessed as residual activity at 1000 nM in presence of gamma33P-ATP by radiometric assay relative to control; type: protein-complex assay
[16] = mouse, in vivo, iv, 10 mg/kg, 24 h
[17] = biological target: FKBP12A/mTOR (Homo sapiens) (UniProt P62942+P42345); assay: Inhibition of mTOR/FKBP12 (unknown origin) assessed as residual activity at 1000 nM in presence of gamma33P-ATP by radiometric assay relative to control; type: protein-complex assay
ATR/ATRIP (Homo sapiens) = ATR/ATRIP (Homo sapiens) (UniProt Q13535+Q8WXE1); assay: Inhibition of ATR/ATR1P (unknown origin) assessed as residual activity at 1000 nM in presence of gamma33P-ATP by radiometric assay relative to control; type: protein-complex assay

- Vz [1]: 0.61 L/kg
- Activity [2]: 31%
- Activity [3]: 47%
- Activity [4]: 90%
- Activity [5]: 78%
- Activity [6]: 88%
- Activity [8]: 73%
- Activity [9]: 39%
- Activity [10]: 90%
- Activity [11]: 88%
- Activity [12]: 103%
- t1/2 [13]: 4.21 h
- Activity [14]: 102%
- Activity [15]: 48%
- AUCt [16]: 35840 ng·h/mL
- Activity [17]: 103%
- Activity (ATR/ATRIP (Homo sapiens)): 91%
SMILES: Cc1ccc2oc(-c3cn([C@H]4CC[C@@H](N)CC4)c4ncnc(N)c34)cc2c1
- Activity [7]: Non-Toxic
